Patent US6441023B1 (American Home Products Corporation, priority 1997, dated 2002)

Target: T1, MMP 1 (Homo sapiens, UniProt P03956)
T1 construct: human recombinant fibroblast collagenase (truncated, mw=18,828, WAR, Radnor)
T1 sequence (P03956 100-269 limits assumed): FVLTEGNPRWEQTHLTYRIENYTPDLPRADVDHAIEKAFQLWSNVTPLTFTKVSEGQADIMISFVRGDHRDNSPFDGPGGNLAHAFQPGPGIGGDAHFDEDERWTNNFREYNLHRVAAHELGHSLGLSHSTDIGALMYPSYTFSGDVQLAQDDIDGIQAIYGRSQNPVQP
Assay: In vitro collagenase assay (human recombinant fibroblast collagenase)
Format: biochemical
Conditions: read-out: MMP 1 IC 50

Work on `CN1CCC(C(=O)NO)(S(=O)(=O)c2ccc(Oc3ccc(Cl)cc3)cc2)CC1` [Example 249, 4-[4-(4-chloro-phenoxy)-benzenesulfonyl]1-methyl-piperidine-4-carboxylic acid hydroxyamide] yielded an IC50 of 1410 nM.
